In one experiment the target is HLA-A*03 (human). Briefly: competitive inhibition of 125I-labelled probe peptide binding to purified HLA, gel filtration. (Size exclusion chromatography separates by hydrodynamic size, large species first.)
Another experiment concerns the target HLA-A*6801 (human). Described as above.

As usually defined, the IC50 is the midpoint of a concentration-inhibition curve. Read a low IC50 as greater potency.

B1: HBV X 105 peptide 1.0215 (…) (peptide)
peptide: TTDLEAYFK
modifications: not checked
As to B1, the half-inhibitory concentration (IC50) with HLA-A*03 (human) amounted to 18.3 µM; with HLA-A*6801 (human), 0.471 µM.

For the origin of these results see patent publication US20090311283A1.
